Measured values taken from patent US7947736B2, “Oligomeric compounds” (BTG International Limited, priority 2004, dated 2011).

Assay: Ketogenic activity after oral administration: plasma β-hydroxybutyrate in rats (Ranbut assay)
Conditions: 300 mg/kg po

## 1-3 butandiol, di-(tri(R)-3-hydroxybutyrate)ester [KTX 0203]
  oral bioavailability: orally bioavailable
  time at which the maximum increase of plasma β-hydroxybutyrate was observed: 30 min
  time by which plasma β-hydroxybutyrate returned to control values: ≤ 2 h
